Test results reported in patent US7153858B2, “Arylpiperazinyl compounds” (Epix Delaware, Inc., priority 2003, dated 2006).

Amino acid sequences for entries named in this document (tags omitted).
UniProt P08908, whole entry, species assumed: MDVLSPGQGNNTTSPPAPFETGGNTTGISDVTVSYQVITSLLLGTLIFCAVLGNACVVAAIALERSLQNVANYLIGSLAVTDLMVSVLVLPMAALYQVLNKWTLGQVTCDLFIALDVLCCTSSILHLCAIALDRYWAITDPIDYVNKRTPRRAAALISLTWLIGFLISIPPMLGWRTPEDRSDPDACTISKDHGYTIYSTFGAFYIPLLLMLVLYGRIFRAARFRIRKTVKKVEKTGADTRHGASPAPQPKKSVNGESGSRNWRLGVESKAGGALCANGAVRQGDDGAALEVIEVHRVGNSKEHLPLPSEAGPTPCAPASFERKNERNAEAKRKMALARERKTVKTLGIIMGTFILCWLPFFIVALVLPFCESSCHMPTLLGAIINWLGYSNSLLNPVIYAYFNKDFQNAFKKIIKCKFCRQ

Each compound was assayed against 5-HT1A (Homo sapiens, UniProt P08908) (assay: 5-HT1A receptor affinity (Ki), Table 1).
Assay type: binding

Ki [µM]	SMILES
0.0068	CC(=O)Nc1cccc(N2CCN(CCCCNS(=O)(=O)c3ccc(C)cc3)CC2)c1 [N-(3-{4-[4-(Toluene-4-sulfonylamino)-butyl]-piperazin-1-yl}-] [N-(3-{4-[4-(Toluene-4-sulfonylamino)-butyl]-piperazin-1-yl}-phenyl)-acetamide]
0.016	CC(=O)Nc1cccc(N2CCN(CCCCNS(=O)(=O)c3ccc(C)cc3)CC2)c1 [N-(3-{4-[4-(Toluene-4-sulfonylamino)-butyl]-piperazin-1-yl}-phenyl)-acetamide]
1.36	Cc1ccc(S(=O)(=O)NCCCCN2CCN(c3cccc(NC(=O)C(C)(C)C)c3)CC2)cc1 [2,2-Dimethyl-N-(3-{4-[4-(toluene-4-sulfonylamino)-butyl]-piperazin-1-yl}-phenyl)-propionamide]
